Consider 1 molecule from patent US10059674B2, “Design, synthesis, and biological evaluation of 1-methyl-1, 4-dihyrdoindeno[1,2-C]pyrazole analogues as potential anticaner agents targeting tubulin colchicine binding site” (ACT PHARMA CO., LTD., priority 2016, dated 2018).

One data set relates to MDCK cells. The data set can be described thus: MDCK cell permeability test. Conditions: MDCK cells.
Another data set relates to P-gp. The data set can be described thus: MDCK cell permeability test. The conditions noted are these: dog, MDCK.
A short description of data set [1]: MDCK cell permeability test. Conditions: dog, MDCK, 90 min; for Papp A→B at 90 min: Apparent permeability coefficient A→B; for Papp B→A at 90 min: Apparent permeability coefficient B→A.
The mark [2] stands for this setting: 1st line of the compound (condition not given).
Setting [3] is: 2nd line of the compound (condition not given).

The structures appear in SMILES notation.

One may read the efflux ratio as the permeability from basolateral to apical divided by that in the opposite direction, in the common usage. As a reminder, the Papp A→B is the apparent permeability from the apical to the basolateral side of a cell layer. A word on the Papp B→A: it is the apparent permeability from the basolateral to the apical side of a cell layer.

With `CC(C)CN(C[C@@H](O)[C@H](Cc1ccccc1)NC(=O)O[C@H]1CCOC1)S(=O)(=O)c1ccc(N)cc1` [Amprenavir, amprenavir, reference compound], in the data set with MDCK cells, the “Permeability Judgment” value was “High”. Moreover, the efflux ratio at 90 min with P-gp turned out to be 13.9. Moreover, in data set [1] (setting [2]), the apical-to-basolateral permeability (Papp A→B) at 90 min worked out at 5.42 ×10⁻⁶ cm/s and the Papp B→A at 90 min turned out to be 75.5 ×10⁻⁶ cm/s. Further, in data set [1] (setting [3]), the Papp A→B at 90 min came to 33.4 ×10⁻⁶ cm/s and the basolateral-to-apical permeability (Papp B→A) at 90 min turned out to be 22.6 ×10⁻⁶ cm/s.
